# Experimental data from paper PMC4411102 (PLoS ONE, 2015).
# Tested on: HIV-1 strains (IIIB, BaL, ADA5 and NL4-3)
# Assay: p24 antigen assay in PBMCs
# Details: presence of HbAHP-25 (4.46–71.40 μM), 120 hrs
compound,measurement,value
CC(C)C[C@H](NC(=O)[C@H](CC(C)C)NC(=O)[C@H](CCCCN)NC(=O)[C@H](CS)NC(=O)[C@H](CC(N)=O)NC(=O)[C@@H](NC(=O)[C@@H]1CCCN1C(=O)[C@H](CC(=O)O)NC(=O)[C@@H](NC(=O)[C@H](CCCNC(=N)N)NC(=O)[C@H](CC(C)C)NC(=O)[C@H](CCCCN)NC(=O)[C@H](Cc1c[nH]cn1)NC(=O)[C@H](C)N)C(C)C)C(C)C)C(=O)N[C@@H](CO)C(=O)N[C@@H](Cc1c[nH]cn1)C(=O)N[C@@H](CS)C(=O)N[C@@H](CC(C)C)C(=O)N[C@@H](CC(C)C)C(=O)N[C@H](C(=O)N[C@H](C(=O)N[C@@H](CC(C)C)C(=O)N[C@@H](C)C(=O)N[C@@H](CCCNC(=N)N)C(=O)N[C@@H](Cc1c[nH]cn1)C(N)=O)[C@@H](C)O)C(C)C [HbAHP-25],Reduction in p24 levels,More than 90%
